# Measured values from ChEMBL document CHEMBL1122788, “Quantitative relationships between alpha-adrenergic activity and binding affinity of alpha-adrenoceptor agonists and antagonists” (J Med Chem, 1984).
# Protein sequences, listed by entry. Tags and fused reporters are not part of them. Lines headed by an entry give the natural chain unless they say otherwise; changes in a name come on top.
# UniProt P22086: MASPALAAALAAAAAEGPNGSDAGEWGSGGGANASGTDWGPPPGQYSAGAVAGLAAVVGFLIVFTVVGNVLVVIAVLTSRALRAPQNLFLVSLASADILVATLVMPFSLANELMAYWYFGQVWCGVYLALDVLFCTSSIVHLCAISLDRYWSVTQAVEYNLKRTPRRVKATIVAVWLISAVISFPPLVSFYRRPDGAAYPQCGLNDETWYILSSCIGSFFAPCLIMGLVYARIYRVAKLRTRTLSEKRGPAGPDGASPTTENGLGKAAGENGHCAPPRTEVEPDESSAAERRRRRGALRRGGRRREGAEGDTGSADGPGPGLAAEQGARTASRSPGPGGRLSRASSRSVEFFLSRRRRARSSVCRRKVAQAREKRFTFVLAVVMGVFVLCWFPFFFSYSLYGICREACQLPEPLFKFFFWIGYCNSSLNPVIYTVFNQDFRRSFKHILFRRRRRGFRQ
# UniProt P19328: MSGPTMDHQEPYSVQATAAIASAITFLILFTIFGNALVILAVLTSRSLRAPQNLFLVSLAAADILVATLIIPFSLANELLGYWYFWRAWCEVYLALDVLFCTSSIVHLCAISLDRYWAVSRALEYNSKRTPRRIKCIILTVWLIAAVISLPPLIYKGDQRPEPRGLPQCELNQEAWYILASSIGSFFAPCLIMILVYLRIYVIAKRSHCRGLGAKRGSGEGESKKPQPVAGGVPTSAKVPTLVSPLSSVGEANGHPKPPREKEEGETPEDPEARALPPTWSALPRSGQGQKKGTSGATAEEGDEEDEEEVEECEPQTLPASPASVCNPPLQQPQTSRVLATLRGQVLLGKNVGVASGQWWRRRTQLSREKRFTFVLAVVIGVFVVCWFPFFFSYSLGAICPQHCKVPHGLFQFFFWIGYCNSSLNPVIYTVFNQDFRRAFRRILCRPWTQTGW
# UniProt P22909: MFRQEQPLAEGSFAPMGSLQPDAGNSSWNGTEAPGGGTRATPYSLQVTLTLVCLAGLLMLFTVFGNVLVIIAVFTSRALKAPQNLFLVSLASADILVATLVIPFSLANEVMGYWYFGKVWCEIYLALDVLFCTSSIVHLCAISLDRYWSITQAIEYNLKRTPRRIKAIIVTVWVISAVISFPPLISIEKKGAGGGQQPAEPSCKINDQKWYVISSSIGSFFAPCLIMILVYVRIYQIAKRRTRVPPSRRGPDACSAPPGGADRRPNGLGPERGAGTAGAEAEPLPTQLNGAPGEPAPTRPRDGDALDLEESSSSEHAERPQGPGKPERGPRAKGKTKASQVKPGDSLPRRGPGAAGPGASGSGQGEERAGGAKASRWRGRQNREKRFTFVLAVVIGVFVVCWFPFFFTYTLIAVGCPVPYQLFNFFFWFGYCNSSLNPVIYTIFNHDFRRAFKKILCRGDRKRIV
# Target: Adrenergic receptor alpha-2 (Rattus norvegicus, UniProt P22086+P19328+P22909)
# Assay: Binding affinity against Alpha-2 adrenergic receptor is the ability to inhibit the specific [3H]clonidine binding (0.4 nM) to rat isolated brain membranes by 50% was reported; 3.6*10e-9
# Type: tissue-based, Membrane
smiles,measurement,value
Brc1c(NC2=NCCN2)ccc2nccnc12 [BRIMONIDINE],IC50,3.6 nM
